Assay results from ChEMBL document CHEMBL1124660, “Synthesis and in vitro aldose reductase inhibitory activity of compounds containing an N-acylglycine moiety” (J Med Chem, 1989).

Target: Aldo-keto reductase family 1 member B1 (Rattus norvegicus, UniProt P07943)
Experiment: Inhibition of aldose reductase from rat lens. Value ranges from 0.07 - 1.2

## O=C1NC(=O)[C@@]2(CCOc3ccc(F)cc32)N1 [SORBINIL]
  IC50: 230 nM
